Values after ≈ are worked out from the molar mass of the structure shown.
Columns and labels:
[1] = system: Bacillus globigii (BM013); experiment: Minimum bactericidal concentration (MBC)
B. globigii [2] = experiment: DiSC3(5) membrane depolarization assay; conditions: 0-12.5 μM, 30 min, LFchimera statement at 3.1 μM, Fig. 2a
B. globigii [3] = experiment: Propidium iodide (PI) membrane permeabilization assay; conditions: B. globigii ~10^8 CFU/ml in PPB, 10 μM PI, 1 h, 0.1-12.5 μM; Fig. 1a

SMILES: CC[C@H](C)[C@H](NC(=O)[C@H](CC(C)C)NC(=O)[C@@H](N)CC(=O)O)C(=O)N[C@@H](Cc1c[nH]c2ccccc12)C(=O)N[C@@H](CCCCN)C(=O)N[C@@H](CC(C)C)C(=O)N[C@@H](CC(C)C)C(=O)N[C@@H](CO)C(=O)N[C@@H](CCCCN)C(=O)N[C@@H](C)C(=O)N[C@@H](CCC(N)=O)C(=O)N[C@@H](CCC(=O)O)C(=O)N[C@@H](CCCCN)C(=O)N[C@@H](Cc1ccccc1)C(=O)NCC(=O)N[C@@H](CCCCN)C(=O)N[C@@H](CC(N)=O)C(=O)N[C@@H](CCCCN)C(=O)N[C@@H](CO)C(=O)N[C@@H](CCCNC(=N)N)C(=O)O
- MBC against B. globigii [1]: 1.6 µM (≈ 3.82 µg/mL)

SMILES: CC[C@H](C)[C@H](NC(=O)[C@H](CC(C)C)NC(=O)[C@@H](N)CC(=O)O)C(=O)N[C@@H](Cc1c[nH]c2ccccc12)C(=O)N[C@@H](CCCCN)C(=O)N[C@@H](CC(C)C)C(=O)N[C@@H](CC(C)C)C(=O)N[C@@H](CO)C(=O)N[C@@H](CCCCN)C(=O)N[C@@H](C)C(=O)N[C@@H](CCC(N)=O)C(=O)N[C@@H](CCC(=O)O)C(=O)N[C@@H](CCCCN)C(=O)N[C@@H](Cc1ccccc1)C(=O)NCC(=O)N[C@@H](CCCCN)C(=O)N[C@@H](CC(N)=O)C(=O)N[C@@H](CCCCN)C(=O)N[C@@H](CO)C(=O)N[C@@H](CCCNC(=N)N)C(=O)NCCCC[C@H](NC(=O)CNC(=O)[C@H](CC(C)C)NC(=O)[C@H](CCCCN)NC(=O)[C@H](CCCCN)NC(=O)[C@H](CCSC)NC(=O)[C@H](CCCNC(=N)N)NC(=O)[C@H](Cc1c[nH]c2ccccc12)NC(=O)[C@H](CCC(N)=O)NC(=O)[C@H](Cc1c[nH]c2ccccc12)NC(=O)[C@H](CCCNC(=N)N)NC(=O)[C@H](CCCNC(=N)N)NC(=O)[C@H](CS)NC(=O)[C@H](CCCCN)NC(=O)[C@@H](N)Cc1ccccc1)C(N)=O
- DiSC3(5) fluorescence (membrane depolarization), in words (B. globigii [2]): relative high DiSC3(5) fluorescence
- PI fluorescence (membrane permeabilization), in words (B. globigii [3]): comparable to LFampin265–284

SMILES: CC[C@H](C)[C@H](NC(=O)[C@H](CC(C)C)NC(=O)[C@@H](N)CC(=O)O)C(=O)N[C@@H](Cc1c[nH]c2ccccc12)C(=O)N[C@@H](CCCNC(=N)N)C(=O)N[C@@H](CC(C)C)C(=O)N[C@@H](CC(C)C)C(=O)N[C@@H](CO)C(=O)N[C@@H](CCCNC(=N)N)C(=O)N[C@@H](C)C(=O)N[C@@H](CCC(N)=O)C(=O)N[C@@H](CCC(=O)O)C(=O)N[C@@H](CCCNC(=N)N)C(=O)N[C@@H](Cc1ccccc1)C(=O)NCC(=O)N[C@@H](CCCCN)C(=O)N[C@@H](CC(N)=O)C(=O)N[C@@H](CCCNC(=N)N)C(=O)N[C@@H](CO)C(=O)N[C@@H](CCCNC(=N)N)C(=O)O
- MBC against B. globigii [1]: 0.8 µM (≈ 2 µg/mL)

SMILES: CC[C@H](C)[C@H](NC(=O)[C@H](CC(C)C)NC(=O)[C@@H](N)CC(=O)O)C(=O)N[C@@H](Cc1c[nH]c2ccccc12)C(=O)N[C@@H](CCCCN)C(=O)N[C@@H](CC(C)C)C(=O)N[C@@H](CC(C)C)C(=O)N[C@@H](CO)C(=O)N[C@@H](CCCCN)C(=O)N[C@@H](C)C(=O)N[C@@H](CCC(N)=O)C(=O)N[C@@H](CCC(=O)O)C(=O)N[C@@H](CCCCN)C(=O)N[C@@H](Cc1ccccc1)C(=O)NCC(=O)N[C@@H](CCCCN)C(=O)N[C@@H](CC(N)=O)C(=O)N[C@@H](CCCCN)C(=O)N[C@@H](CO)C(=O)N[C@@H](CCCCN)C(=O)O
- MBC against B. globigii [1]: 1.6 µM (≈ 3.78 µg/mL)

Source: publication PMC5104768, “Effects of lactoferrin derived peptides on simulants of biological warfare agents” (2016)
